By IC50 is commonly meant the midpoint of a concentration-inhibition curve. A lower IC50 goes with greater potency.

Bounds are passed on as bounds.

Experimental findings from paper PMC9458217, “Synthesis and Biological Evaluation of Cassane Diterpene (5α)-Vuacapane-8(14), 9(11)-Diene and of Some Related Compounds” (Molecules, 2022) are described below.

For this experiment, the system named is B16-F10 mouse melanoma cells. The experiment is described as follows: MTT cytotoxicity on B16-F10 cells. Particulars: 72 h.

Regarding `Cc1c2c(cc3c1CCC1C(C)(C)CCCC31C)OC(O)C2` (stereo not shown) [Compound 6, pterolobirin G], the half-inhibitory concentration (IC50) was under 10 µg/mL.
